Binding of CDR-mutated scFvs to a peptide of the spike HR2 region

The target is the same throughout: PDVDLGDISGINAS, from the HR2 region of SARS-CoV-2 spike.

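Designed CDR sequences, proposed from the first random library and measured here. Several design methods are mixed in this list. The scFvs were displayed on barcoded MATa yeast, the peptide on MATalpha yeast. Binding brings cells together so that they mate, and sequencing counts the barcode pairs among the diploids. A regression on co-assayed BCL2-family reference pairs converts the normalised counts of each replicate to an apparent Kd. Mating was done six times.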

Parent: Ab-14, a human scFv built as VH, the linker GGGGSGGGGSGGGGS, VL. Only the CDRs of the light chain vary.
VH: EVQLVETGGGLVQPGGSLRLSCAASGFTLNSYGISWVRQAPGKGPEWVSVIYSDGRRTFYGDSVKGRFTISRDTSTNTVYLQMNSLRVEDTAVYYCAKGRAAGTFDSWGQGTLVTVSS
VL: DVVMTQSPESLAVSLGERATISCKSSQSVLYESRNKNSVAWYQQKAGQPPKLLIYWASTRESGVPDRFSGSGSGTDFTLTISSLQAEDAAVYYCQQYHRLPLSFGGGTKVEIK

The whole VL of each variant is written out. Variants here have more than six changes. Each Kd is an estimate from the mating assay, the geometric mean of the replicates in which the pair was seen; lower is stronger. "no signal" marks a missing value. The strain was present, yet no cells mated with the target were sequenced in any replicate, which points to weak or no binding. Order: sorted from the lowest average up, undetected variants last.

For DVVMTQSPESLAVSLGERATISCKLSQSWEGEERNKNSVAWYQQKAGQPPKLLIYSASTREQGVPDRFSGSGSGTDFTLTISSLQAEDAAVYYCQQYHRLPLSFGGGTKVEIK, the assay gave 500 pM (6 of 6 replicates). The variant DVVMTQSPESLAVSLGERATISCRVSSNLMAGEIHYNNIAWYQQKAGQPPKLLIYNTKVLEYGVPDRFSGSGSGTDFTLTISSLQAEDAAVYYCQQYMRLPLGFGGGTKVEIK gave 620 pM (6 of 6 replicates). For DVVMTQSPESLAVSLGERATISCNLVGRVPDMYQGRNAIAWYQQKAGQPPKLLIYDMHCRAGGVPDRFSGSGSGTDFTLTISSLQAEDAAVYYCQQYERLPLAFGGGTKVEIK, the assay gave 2.7 nM (6 of 6 replicates). The variant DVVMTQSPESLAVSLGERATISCKLQQLMLYESRMKNNVAWYQQKAGQPPKLLIYNASQRWSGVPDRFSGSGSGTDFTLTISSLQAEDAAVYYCQQYHRLPLSFGGGTKVEIK gave 3.4 nM (6 of 6 replicates). For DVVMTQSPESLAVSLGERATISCKIGQMVTGETRNKNSIAWYQQKAGQPPKLLIYQMTTREGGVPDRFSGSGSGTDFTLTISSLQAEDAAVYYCQQYHRLPLSFGGGTKVEIK, the assay gave 3.5 nM (6 of 6 replicates). The variant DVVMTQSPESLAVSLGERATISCKWSQSVLGEERNKMSVAWYQQKAGQPPKLLIYNASQREEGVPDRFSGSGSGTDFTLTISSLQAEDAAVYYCQQYHRLPLSFGGGTKVEIK gave 3.5 nM (6 of 6 replicates). With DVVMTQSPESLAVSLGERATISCVLQQSVLPESRNKNSVAWYQQKAGQPPKLLIYSASTRLPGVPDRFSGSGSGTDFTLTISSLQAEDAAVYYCQQYHRLPLSFGGGTKVEIK the result was 4.5 nM (6 of 6 replicates). For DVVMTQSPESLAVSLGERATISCNMKVGLNFGGIQHQAIAWYQQKAGQPPKLLIYEVEKRESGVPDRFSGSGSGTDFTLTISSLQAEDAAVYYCQQYARLPLTFGGGTKVEIK, the assay gave 5.3 nM (6 of 6 replicates). For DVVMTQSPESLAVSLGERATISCQLGWNQSGDTLSQGAIAWYQQKAGQPPKLLIYHAAELVDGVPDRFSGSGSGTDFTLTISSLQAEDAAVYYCQQYFRLPLLFGGGTKVEIK, the assay gave 5.8 nM (6 of 6 replicates).

The variant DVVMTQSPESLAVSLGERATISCALSINGPQQHGMNDSIAWYQQKAGQPPKLLIYHSDRREAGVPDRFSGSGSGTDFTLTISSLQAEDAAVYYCQQYYRLPLAFGGGTKVEIK showed 7.3 nM (6 of 6 replicates). The variant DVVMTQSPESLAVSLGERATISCVLSDTIGNQYDEADNIAWYQQKAGQPPKLLIYDKTETSVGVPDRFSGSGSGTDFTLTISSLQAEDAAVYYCQQYARLPLSFGGGTKVEIK gave 22 nM (5 of 6 replicates). The variant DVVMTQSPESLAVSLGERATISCKIQHLTYFENIGEWSVAWYQQKAGQPPKLLIYDANTSVLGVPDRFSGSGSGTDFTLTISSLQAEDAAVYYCQDYFRLPLSFGGGTKVEIK showed 35 nM (6 of 6 replicates). The variant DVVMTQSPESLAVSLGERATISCKLDLNNGEMDKKGQNIAWYQQKAGQPPKLLIYEASTAGMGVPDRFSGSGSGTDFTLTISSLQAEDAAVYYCQHYWRLPLSFGGGTKVEIK showed 39 nM (1 of 6 replicates). For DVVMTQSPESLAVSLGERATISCHMSMLTLQGQRHRNAVAWYQQKAGQPPKLLIYQMTTRENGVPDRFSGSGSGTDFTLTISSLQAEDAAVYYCQQYDRLPLIFGGGTKVEIK, the assay gave 110 nM (6 of 6 replicates). For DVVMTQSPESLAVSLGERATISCFIAGNSDNLYQDESSVAWYQQKAGQPPKLLIYETNQVREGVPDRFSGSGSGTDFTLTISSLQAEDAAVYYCQQYALLPLSFGGGTKVEIK, the assay gave 120 nM (2 of 6 replicates). For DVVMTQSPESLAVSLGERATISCKLSGLMASSKFAKDNVAWYQQKAGQPPKLLIYENNTREKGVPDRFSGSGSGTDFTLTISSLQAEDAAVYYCQQYDRLPLSFGGGTKVEIK, the assay gave 150 nM (6 of 6 replicates). For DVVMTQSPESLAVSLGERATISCKLSQFYRMESRNKNSVAWYQQKAGQPPKLLIYDNSTRESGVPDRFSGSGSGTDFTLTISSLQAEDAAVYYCQDYDRLPLSFGGGTKVEIK, the assay gave no signal (0 of 6 replicates).

The 2 strongest on average among those seen in every replicate, once more:

VL	Kd	seen in
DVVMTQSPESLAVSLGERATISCKLSQSWEGEERNKNSVAWYQQKAGQPPKLLIYSASTREQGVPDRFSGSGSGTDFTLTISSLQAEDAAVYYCQQYHRLPLSFGGGTKVEIK	500 pM	6 of 6
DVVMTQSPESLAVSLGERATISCRVSSNLMAGEIHYNNIAWYQQKAGQPPKLLIYNTKVLEYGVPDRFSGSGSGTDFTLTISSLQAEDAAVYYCQQYMRLPLGFGGGTKVEIK	620 pM	6 of 6

The authors' rule: three or more of the six replicates give a measured affinity, fewer mean a poor binder. Values of this round are not directly comparable with the first-round values of the same sequences. Background: pairings of all light chain designs with three empty control strains gave a value in 4% of cases (median 430 nM, 5th percentile 38 nM). Values in that range, when seen in few replicates, are hard to tell from nonspecific mating. Of ten entries with the parent sequence, four were seen in most replicates (averages 2.2 nM to 240 nM), three in one and three in none, so single entries are noisy.

The measurements come from Li et al. 2023 (doi:10.1038/s41467-023-39022-2) through the FLAb antibody collection.